Article PMC8603004 (EFSA Journal, 2021)

How the values were obtained:
[1] = Third in vitro rumen fluid trial; conditions: 16 h
[2] = Third in vitro rumen fluid trial; conditions: 16 h; remark: listed apart in the source
[3] = Incubation of
[4] = Third in vitro rumen fluid trial; conditions: 16 h; remark: listed apart in the source

Question: With propane‐1,3‐diol as the substance, how does the “Major metabolite, share of the extractable radioactivity” value (“Major metabolite, share” for short) ([1]; aerobic) read?
Answer: 57.8%

Question: What about the “Major metabolite, share” value ([1]; anaerobic) of the same substance?
Answer: 63.7%

Question: What about the “Major metabolite, share” value ([2]; aerobic) of the same substance?
Answer: 70.5%

Question: And the “Major metabolite, share” value ([2]; anaerobic)?
Answer: 46.8%

Question: And the “Major metabolite formed at t = 24 h” value ([3]; from 3‐NOP 2.2 mg/L)?
Answer: 98.5%

Question: And the “Major metabolite formed at t = 24 h” value ([3]; from 3‐NOP 23 mg/L)?
Answer: > 97%

Question: What about the “Major metabolite, share” value ([4]; aerobic) of the same substance?
Answer: 66.4%

Question: What about the “Major metabolite, share” value ([4]; anaerobic) of the same substance?
Answer: 82.8%
